{"source": "patent US20260224567A1", "about": "“METHODS FOR TREATING NEUROBLASTOMA WITH A DUAL ANAPLASTIC LYMPHOMA KINASE AND FOCAL ADHESION KINASE INHIBITOR” (The Regents of the University of Michigan, priority 2023, published 2026)", "key": {"[1]": {"test_system": "COG-N-452 (ALK F1174L mutation)", "assay": "NB PDX model COG-N-452", "details": "COG-N-452 PDX; ESK440 PO QD or BID"}, "COG-N-415x": {"test_system": "COG-N-415x", "assay": "one-week survival assay, COG-N-415x", "assay_type": "cell-based", "details": "168 h, ALK F1174L, MYCN Amp, treated for one week"}, "[2]": {"test_system": "Felix (ALK F1254C mutation)", "assay": "NB PDX model Felix", "assay_type": "in vivo, mice", "details": "ESK440 PO QD or BID"}, "[3]": {"test_system": "COG-N-453 (ALK F1174L mutation)", "assay": "NB PDX model COG-N-453", "details": "COG-N-453 PDX; varying doses of ESK440 PO BID"}}, "note": "pIC50: −log10 of the molar value."}
{"smiles": "CNC(=O)c1ccccc1Nc1nc(Nc2ccc3c(c2OC)CCC[C@H](N2CCN(CCO)CC2)C3)ncc1Cl", "note": "[ESK440, (S)-2-((5-chloro-2-((6-(4-(2-hydroxyethyl)piperazin-1-yl)-1-methoxy-6,7,8,9-tetrahydro-5H-benzo[7]annulen-2-yl)amino)pyrimidin-4-yl)amino)-N-methylbenzamide]", "values": [{"measurement": "body weights of mice", "setting": "[1]", "value": "not affecting"}, {"measurement": "tumor growth", "setting": "[1]", "value": "decreased"}, {"measurement": "tumor weight", "setting": "[1]", "value": "decreased"}, {"measurement": "pIC50", "setting": "COG-N-415x", "value": 6.72}, {"measurement": "body weights of mice", "setting": "[2]", "value": "not affecting"}, {"measurement": "tumor growth", "setting": "[2]", "value": "decreased"}, {"measurement": "tumor weight", "setting": "[2]", "value": "decreased"}, {"measurement": "body weights of mice", "setting": "[3]", "value": "not affecting"}, {"measurement": "tumor growth", "setting": "[3]", "value": "decreased"}, {"measurement": "tumor weight", "setting": "[3]", "value": "decreased"}]}
